Amino acid sequences for entries named in this document (tags omitted).
UniProt P11308, whole entry: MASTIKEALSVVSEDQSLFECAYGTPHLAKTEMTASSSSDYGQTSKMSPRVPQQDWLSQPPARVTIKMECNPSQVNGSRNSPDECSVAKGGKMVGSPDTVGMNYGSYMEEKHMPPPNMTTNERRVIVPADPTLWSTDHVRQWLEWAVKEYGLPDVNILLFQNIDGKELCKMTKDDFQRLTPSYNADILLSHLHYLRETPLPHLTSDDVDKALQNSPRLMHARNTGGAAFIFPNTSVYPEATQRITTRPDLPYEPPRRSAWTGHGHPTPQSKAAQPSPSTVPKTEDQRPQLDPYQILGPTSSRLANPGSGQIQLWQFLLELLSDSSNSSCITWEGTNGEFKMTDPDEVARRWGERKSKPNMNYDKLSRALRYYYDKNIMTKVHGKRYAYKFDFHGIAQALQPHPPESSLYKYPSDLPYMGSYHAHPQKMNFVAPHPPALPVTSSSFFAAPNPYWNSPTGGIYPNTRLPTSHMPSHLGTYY

“And” between values parts separate entries of the source, which are not always exact repeats. Equal values may be shown once. Only a part is listed here, and it is no random draw. Some tests of the compounds listed are not included; inactive here does not mean inactive elsewhere. The source made the active and inactive calls. The call rests on the fitted dose curve; in most records, active means well fitted inhibition curve with a large enough effect in the polarisation, with a control signal flat; inconclusive means small, poorly fitted or top-dose-only effect, or effect the other way, or a change in a side signal; inactive means no such curve, though single readings can be large or run the other way; the % refers to the polarisation.
The compounds below were run against Transcriptional regulator ERG (Homo sapiens) (UniProt P11308) (assay: qHTS for Small Molecule Inhibitors of the ERG Ets/DNA interaction). Settings: fluorescence polarization, His-ERG Ets domain / labelled DNA; at 76.9 µM (top of the series).
Excerpt: The Ets family of proteins is a family of ~30 conserved transcription factors defined by the presence of an ~85 amino acid domain referred to as the Ets domain, which mediates sequence-specific DNA binding to a core DNA element GGAA/T.The Ets family member ERG has been linked to several neoplasms. […] More extensive studies of the effects of over-expression of ERG in prostate cells have recently been carried out and have shown that over-expression of ERG results in increased invasion. […] We will carry out a high throughout screen to identify inhibitors of the interaction between ERG and DNA using a fluorescence polarization (FP) assay with a His-tagged ERG Ets domain and fluorescently-labeled DNA probes to develop small molecule inhibitors of this interaction as probes to test this hypothesis and lay the groundwork for the development of targeted therapies against ERG. NIH Molecular Libraries Probe Production Network [MLPCN] NIH Chemical Genomics Center [NCGC] Grant: NS066464 PI Name: John Bushweller, University of Virgina
1.5 ul of protein solution (1 uM ERG domain in 300mM KCl, 50mM Tris-HCl, 1mM EDTA, 1mM DTT, pH 7.5); 20 nl Control plate and compound library plate; 1.5 ul mixture of 5 nM Fluorescein-DNA and 100nM Texas-615-DNA solution in same buffer as above solution; measure fluorescence polarization sequentially for fluorescein (Excitation = 480 nm, Emission = 535s, 535p nm) and Texas red (Excitation = 555 nm, Emission = 632s, 632p nm).
`O=C(NCC1(N2CCCCC2)CCCCC1)c1cccc(Cl)c1` was tested, and the FP activity, negative = inhibition was inactive: -8.24%. In the case of `COc1ccc(C(=O)NCC2(N(C)C)CCCCC2)cc1Cl`, the FP activity, negative = inhibition is reported as inactive: -10.9%. With `COc1cccc(C(=O)NCC2(N3CCCCC3)CCCCC2)c1` the FP activity, negative = inhibition was inactive: 6.88%. `COc1ccc(Cl)cc1C(=O)NCC1(N(C)C)CCCCC1` was tested, and the FP activity, negative = inhibition was inactive: 8.56%. `COc1cc(C(=O)NCC2(N(C)C)CCCCC2)c([N+](=O)[O-])cc1OC` was tested, and the FP activity, negative = inhibition was inactive: 1.55%. With `CN(C)C1(CNC(=O)c2ccc(Br)cc2)CCCCC1` the FP activity, negative = inhibition was inactive: 7.3%. For `CN(C)c1cccc(C(=O)NCC2(N(C)C)CCCCC2)c1`, the FP activity, negative = inhibition was inactive: -0.293%. In the case of `CC(C)Oc1ccc(C(=O)NCC2(N(C)C)CCCCC2)cc1`, the FP activity, negative = inhibition is reported as inactive: -5.51% and inactive: 23.2%. For `O=C(OCCN1CCCC1)C(O)(c1ccccc1)c1ccccc1`, the FP activity, negative = inhibition was inactive: 2.14%. For `Cc1cccc(C(=O)NCC2(N(C)C)CCCCC2)c1`, the FP activity, negative = inhibition was inactive: -4.7%. For `COc1cc(C(=O)NCC2(N(C)C)CCCCC2)cc(OC)c1OC`, the FP activity, negative = inhibition was inactive: -3.77%. With `COc1ccc(Br)c(C(=O)NCC2(N3CCCCC3)CCCCC2)c1` the FP activity, negative = inhibition was inactive: 1.77%. With `CC(C)COc1ccc(C(=O)NCC2(N(C)C)CCCCC2)cc1` the FP activity, negative = inhibition was inactive: 0.168%. `O=C(OC1CN2CCC1CC2)C(CO)(c1ccccc1)c1ccccc1` (stereo not given) was tested, and the FP activity, negative = inhibition was inactive: -2.47%. `COc1cccc(C(=O)NCC2(N3CCOCC3)CCCCC2)c1` was tested, and the FP activity, negative = inhibition was inactive: 1.9%. For `CN(C)C1(CNC(=O)c2ccccc2F)CCCCC1`, the FP activity, negative = inhibition was inactive: 1.19%. For `Cc1ccc(C(=O)NCC2(N3CCCCC3)CCCCC2)cc1`, the FP activity, negative = inhibition was inactive: 4.78%. `CC(C)N1C(=O)CC2(CCN(CCOC(=O)C(O)(c3ccccc3)c3ccccc3)CC2)C1=O` was tested, and the FP activity, negative = inhibition was inactive: 0.752%. In the case of `CCN(CC)CC(C)C(C)OC(=O)C(O)(c1ccccc1)c1ccccc1` (stereo not given), the FP activity, negative = inhibition is reported as inactive: 0.231%. In the case of `CN(C)C1(CNC(=O)c2cccc(Cl)c2)CCCCC1`, the FP activity, negative = inhibition is reported as inactive: -30.3%. `COc1cc(SC)ccc1C(=O)NCC1(N(C)C)CCCCC1` was tested, and the FP activity, negative = inhibition was inactive: -11.4%. `CN1[C@@H]2CC[C@H]1CC(OC(=O)C(O)(c1ccccc1)c1ccccc1)C2` (stereo not given in full) was tested, and the FP activity, negative = inhibition was inactive: -5.02%. With `O=C(NCC1(N2CCCCC2)CCCCC1)c1cc([N+](=O)[O-])ccc1Cl` the FP activity, negative = inhibition was inactive: -7.14%. With `Cc1cc(C(=O)NCC2(N3CCCCC3)CCCCC2)ccc1[N+](=O)[O-]` the FP activity, negative = inhibition was inactive: 10.3%. `CCN1CCCC(OC(=O)C2(O)c3ccccc3C=Cc3ccccc32)C1` (stereo not given) was tested, and the FP activity, negative = inhibition was inactive: -2.01%. With `O=C(NCC1(N2CCCCC2)CCCCC1)c1cccc(Br)c1` the FP activity, negative = inhibition was inactive: -14.3%. With `COc1ccc(C(=O)NCC2(N(C)C)CCCCC2)cc1` the FP activity, negative = inhibition was inactive: -11.8%. For `CCOc1cccc(C(=O)NCC2(N(C)C)CCCCC2)c1`, the FP activity, negative = inhibition was inactive: -2.38%. In the case of `C=CCN1CCN(CCOC(=O)C(O)(c2ccccc2)c2ccccc2)CC1`, the FP activity, negative = inhibition is reported as inactive: -8.87%. With `O=C(NCC1(N2CCCCC2)CCCCC1)c1cc(F)c(F)cc1Cl` the FP activity, negative = inhibition was inactive: 4.53%. With `CCCCOc1ccccc1C(=O)NCC1(N(C)C)CCCCC1` the FP activity, negative = inhibition was inactive: 0.638%. In the case of `CN(C)C1(CNC(=O)c2ccccc2[N+](=O)[O-])CCCCC1`, the FP activity, negative = inhibition is reported as inactive: 4.2%. For `Cc1ccccc1C(=O)NCC1(N2CCCCC2)CCCCC1`, the FP activity, negative = inhibition was inactive: 8.37%. In the case of `CN(C)C1CCCC1OC(=O)C(O)(c1ccccc1)c1ccccc1` (stereo not given), the FP activity, negative = inhibition is reported as inactive: -2.92%. In the case of `CN(C)c1ccc(C(=O)NCC2(N(C)C)CCCCC2)cc1`, the FP activity, negative = inhibition is reported as inactive: 2.94%.
Further: % of control where 0% means no effect.
